Measured values taken from US10023836B2, “Medium for yeasts” (YAMAGUCHI UNIVERSITY, priority 2012, dated 2018).

Test system: Saccharomyces cerevisiae RAK3599 strain
Assay: SynAA culture medium: elimination of single components and inorganic ion concentration
Format: cell-based
Experimental: In a case where no special provisions are made, a procedure for a cultivation experiment using the culture medium to be investigated for proliferation was such that a yeast undergoing investigation was pre-cultured in a YPD liquid culture medium at 28° C. for 24 hours, after which the yeast was adjusted such that OD600=20. […] In addition, OD600 was measured every 15 minutes by a spectrophotometer (Cell density meter co8000, WPA). Hereafter, data is represented by graphs for a case using the automatic spectrophotometer; however, these graphs are primarily used to compare the slope of logarithmic growth phase proliferation curves for each culture medium, and because OD600 is measured without dilution, values where OD600=3 to 3.5 or more may be incorrect.
Culture mediums were prepared in which one component each of the components configuring the inorganic ion mix was eliminated from the SynAA culture medium, and OD600 was measured. […] Thereafter, an investigation specifically of inorganic ion concentration was conducted. […] An investigation was conducted using RAK3599 strain (hereafter, simply referred to as “RAK3599 strain”), which is a strain of Saccharomyces cerevisiae not having a particular nutritional requirement. […]

Compound: O=C(O)CCCC[C@@H]1SC[C@@H]2NC(=O)N[C@@H]21 [biotin]
- essentiality for increasing proliferation: essential components
